From paper PMC8041193 (PLoS ONE, 2021) come the findings set out here.

Ends that are not written are not given here.

The nature of this series: LA concentration in porcine intestinal fluid collected via in vivo ultrafiltration probes, UPLC-MS/MS.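 Also: pigs aged 6–8 weeks and weighing 15–20 kg, intestinal fluid sampled through surgically implanted ultrafiltration probes whose placement was checked post mortem.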 The settings on record: pig, fasted, oral 1 mg LA clinical formulation; at 1 hour in the distal duodenum and the proximal jejunum; range of individual samples.

With GGVLVQPG [LA, Larazotide acetate], the “Peak LA concentrations” value was 0.32 to 1.76 µM.
